# Reference: patent US12295939B2, “Substituted benzothiophene analogs as selective estrogen receptor degraders” (The Board of Trustees of the University of Illinois, priority 2018, dated 2025)
# Chains of the proteins cited; added tags and fusions are not shown.
# UniProt P03372, whole entry: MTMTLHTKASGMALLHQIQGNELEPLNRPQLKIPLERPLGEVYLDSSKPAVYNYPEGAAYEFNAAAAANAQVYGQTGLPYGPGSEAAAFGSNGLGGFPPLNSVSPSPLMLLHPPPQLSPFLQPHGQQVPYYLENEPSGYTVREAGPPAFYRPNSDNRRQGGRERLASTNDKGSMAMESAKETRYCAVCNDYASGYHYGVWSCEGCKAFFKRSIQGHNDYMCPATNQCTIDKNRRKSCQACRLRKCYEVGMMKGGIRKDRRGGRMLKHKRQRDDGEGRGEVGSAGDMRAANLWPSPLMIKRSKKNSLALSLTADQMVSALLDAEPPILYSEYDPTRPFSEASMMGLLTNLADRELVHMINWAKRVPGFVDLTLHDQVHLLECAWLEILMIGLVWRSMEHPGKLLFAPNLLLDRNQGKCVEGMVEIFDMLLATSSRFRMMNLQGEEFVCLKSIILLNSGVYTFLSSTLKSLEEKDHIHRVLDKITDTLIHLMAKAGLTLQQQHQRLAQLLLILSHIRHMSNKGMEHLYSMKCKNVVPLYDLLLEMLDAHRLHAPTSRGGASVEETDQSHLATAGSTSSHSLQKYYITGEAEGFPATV
# Target: T1, ER (Homo sapiens, UniProt P03372)
# T1 construct: endogenous in cells
# Assay: Relative binding affinity (RBA)
# Experimental: Example compounds were assayed to determine ER downregulation, relative binding affinity, and ER antagonism.
row,Compound,RBA (%)
1,"O=C(c1ccc(O)cc1)c1sc2cc(O)ccc2c1Oc1ccc(OCCN2CC(CF)C2)cc1 [Compound 1, (3-(4-(2-(3-(fluoromethyl)azetidin-1-yl)ethoxy)phenoxy)-6-hydroxybenzo[b]thiophen-2-yl)(4-hydroxyphenyl) methanone]",57.0 ± 14
2,"Cc1cc(O)ccc1C(=O)c1sc2cc(O)ccc2c1Oc1ccc(OCCN2CC(CF)C2)cc1 [Compound 2, (3-(4-(2-(3-(fluoromethyl)azetidin-1-yl)ethoxy)phenoxy)-6-hydroxybenzo[b]thiophen-2-yl)(4-hydroxy-2-methylphenyl) methanone]",21.9 ± 3

# Now from value to compound:
row,RBA (%),Compound
1,59.6 ± 3,"Cc1cc(F)cc(C)c1C(=O)c1sc2cc(O)ccc2c1Oc1ccc(OCCN2CC(CF)C2)cc1 [Compound 5, (4-fluoro-2,6-dimethylphenyl)(3-(4-(2-(3-(fluoromethyl)azetidin-1-yl)ethoxy)phenoxy)-6-hydroxybenzo[b]thiophen-2-yl)methanone]"
2,32.6 ± 6,"Cc1cc(F)cc(C)c1C(=O)c1sc2cc(O)ccc2c1Oc1ccc(OCCN2CC[C@@H](CF)C2)cc1 [Compound 35, (R)-(4-fluoro-2,6-dimethylphenyl)(3-(4-(2-(3-(fluoromethyl)pyrrolidin-1-yl)ethoxy)phenoxy)-6-hydroxybenzo[b]thiophen-2-yl)methanone]"
3,17.7,"C[C@]12CC[C@@H]3c4ccc(O)cc4C[C@@H](CCCCCCCCC[S+]([O-])CCCC(F)(F)C(F)(F)F)[C@H]3[C@@H]1CC[C@@H]2O (some centres unmarked) [Fulvestrant, fulvestrant, reference compound]"
